Reference: ChEMBL document CHEMBL5154682, “TDP-43 Modulation by Tau-Tubulin Kinase 1 Inhibitors: A New Avenue for Future Amyotrophic Lateral Sclerosis Therapy” (J Med Chem, 2022)

Amino acid sequences for entries named in this document (tags omitted). A change or cut given only in a name is not applied to a line headed by its entry.
UniProt Q5TCY1: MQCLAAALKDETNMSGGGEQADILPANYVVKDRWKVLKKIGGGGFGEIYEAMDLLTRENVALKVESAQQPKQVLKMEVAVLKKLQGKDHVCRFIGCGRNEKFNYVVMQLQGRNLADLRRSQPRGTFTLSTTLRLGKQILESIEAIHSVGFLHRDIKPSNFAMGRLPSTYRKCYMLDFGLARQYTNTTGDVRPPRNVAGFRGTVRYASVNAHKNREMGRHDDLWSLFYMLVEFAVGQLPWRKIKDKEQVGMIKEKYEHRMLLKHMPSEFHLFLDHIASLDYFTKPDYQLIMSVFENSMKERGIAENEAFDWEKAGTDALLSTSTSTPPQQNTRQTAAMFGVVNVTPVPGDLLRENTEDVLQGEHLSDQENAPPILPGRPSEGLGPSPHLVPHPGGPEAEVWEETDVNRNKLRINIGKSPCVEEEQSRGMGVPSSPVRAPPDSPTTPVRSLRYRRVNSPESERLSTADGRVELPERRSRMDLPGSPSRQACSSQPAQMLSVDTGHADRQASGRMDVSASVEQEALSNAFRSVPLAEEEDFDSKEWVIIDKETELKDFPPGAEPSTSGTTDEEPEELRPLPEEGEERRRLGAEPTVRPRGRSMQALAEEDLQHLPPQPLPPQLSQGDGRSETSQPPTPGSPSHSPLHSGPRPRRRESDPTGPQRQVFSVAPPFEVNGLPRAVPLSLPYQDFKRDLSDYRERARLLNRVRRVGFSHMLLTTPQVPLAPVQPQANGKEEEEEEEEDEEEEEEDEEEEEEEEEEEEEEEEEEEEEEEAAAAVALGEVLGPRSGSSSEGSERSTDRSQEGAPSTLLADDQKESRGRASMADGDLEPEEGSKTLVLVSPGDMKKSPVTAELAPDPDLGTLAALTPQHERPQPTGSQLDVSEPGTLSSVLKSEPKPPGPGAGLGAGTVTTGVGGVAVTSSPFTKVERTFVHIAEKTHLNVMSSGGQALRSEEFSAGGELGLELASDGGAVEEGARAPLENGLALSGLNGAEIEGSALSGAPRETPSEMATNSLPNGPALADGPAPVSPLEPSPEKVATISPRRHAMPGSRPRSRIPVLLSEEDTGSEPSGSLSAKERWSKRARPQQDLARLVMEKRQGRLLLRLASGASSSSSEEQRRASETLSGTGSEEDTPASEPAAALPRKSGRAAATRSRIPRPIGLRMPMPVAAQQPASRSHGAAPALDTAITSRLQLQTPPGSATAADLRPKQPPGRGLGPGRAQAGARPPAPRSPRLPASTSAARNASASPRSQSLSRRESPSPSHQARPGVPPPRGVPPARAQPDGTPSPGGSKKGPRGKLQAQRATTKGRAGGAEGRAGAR

Legend:
[1] = Selectivity index, ratio of IC50 for recombinant human TTBK1 to IC50 for recombinant human TTBK2
Tau-tubulin kinase 1 = Tau-tubulin kinase 1 (Homo sapiens, UniProt Q5TCY1)

Compound	Selectivity Index [1]	pIC50 (Tau-tubulin kinase 1)
COc1ccc(Oc2ccc(Nc3ncnc4[nH]ccc34)cc2)cc1	0.55	6.47
Cc1ccc(Oc2ccc(Nc3ncnc4[nH]ccc34)cc2)cc1	0.11	–
Clc1ccccc1Oc1ccc(Nc2ncnc3[nH]ccc23)cc1	1.08	6.48
FC(F)(F)c1ccc(Oc2ccc(Nc3ncnc4[nH]ccc34)cc2)cc1	0.06	–
FC(F)(F)c1cccc(Oc2ccc(Nc3ncnc4[nH]ccc34)cc2)c1	0.06	–
Clc1cccc(Oc2ccc(Nc3ncnc4[nH]ccc34)cc2)c1	0.02	–
N#Cc1ccc(Oc2ccc(Nc3ncnc4[nH]ccc34)cc2)cc1	0.25	–
O=[N+]([O-])c1ccc(Sc2ccc(Nc3ncnc4[nH]ccc34)cc2)cc1	0.11	–
Nc1ccc(Oc2ccc(Nc3ncnc4[nH]ccc34)cc2)cc1	0.1	–

pIC50: −log10 of the molar value.
